Data on one substance can be found in article PMC3479967, “Drug-Drug Interactions Potential of Icariin and Its Intestinal Metabolites via Inhibition of Intestinal UDP-Glucuronosyltransferases” (Evidence-based Complementary and Alternative Medicine : eCAM, 2012).

The target in assay [1] is T1, UGT2B4 (Homo sapiens, UniProt P06133).
T1 sequence (P06133 24-528): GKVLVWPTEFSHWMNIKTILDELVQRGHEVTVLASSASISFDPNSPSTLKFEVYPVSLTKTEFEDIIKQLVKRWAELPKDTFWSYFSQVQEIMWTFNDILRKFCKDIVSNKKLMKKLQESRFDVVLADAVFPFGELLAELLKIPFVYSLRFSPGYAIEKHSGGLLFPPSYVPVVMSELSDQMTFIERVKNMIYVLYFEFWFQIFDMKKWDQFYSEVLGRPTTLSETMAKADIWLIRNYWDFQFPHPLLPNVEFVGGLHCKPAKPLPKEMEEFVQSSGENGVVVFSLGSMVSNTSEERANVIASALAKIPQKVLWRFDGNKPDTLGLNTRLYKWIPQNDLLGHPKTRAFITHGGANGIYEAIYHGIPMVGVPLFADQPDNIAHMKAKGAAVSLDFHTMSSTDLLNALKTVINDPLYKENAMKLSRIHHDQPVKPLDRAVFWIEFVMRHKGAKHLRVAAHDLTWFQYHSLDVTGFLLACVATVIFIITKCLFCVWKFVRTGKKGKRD
The assay is described as follows: Inhibition of recombinant UGT2B4 activity (4-MU glucuronidation). As to conditions: read-out: IC50 for inhibition of UGT2B4 activity; recombinant human UGT2B4, 1200 μM 4-MU, mean ± SD. The protocol:
(§1) A panel of recombinant human UGT supersomes (UGT1A1, UGT1A3, UGT1A4, UGT1A6, UGT1A7, UGT1A8, UGT1A9, UGT1A10, UGT2B4, UGT2B7, UGT2B15, and UGT2B17) expressed in baculovirus-infected insect cells were purchased from BD Gentest Corp. (Woburn, MA, USA).
(§2) 4-MU, a nonselective substrate of UGTs, was used as probe substrate for all UGTs except UGT1A4. Incubations with each individual enzyme were conducted using conditions previously described. There was a 5 min preincubation step at 37°C before the reaction was started by addition of UDPGA. The incubation mixtures were then centrifuged at 20,500 ×g for 15 min to obtain the supernatant. Aliquots (20 μL) were then analyzed by HPLC. The HPLC system (SHIMADZU, Kyoto, Japan) consisted of an SCL-10A system controller, two LC-10AT pumps, a SIL-10A auto injector, and a SPD-10AVP UV detector. Chromatographic separation was achieved using a Kromasil ODS column (4.6 × 150 mm I.D., 5 μm particle size) at a flow rate of 1 mL/min and UV detection at 316 nm. The mobile phase consisted of 10 mM KH2PO4, pH 2.7 (A) and acetonitrile (B). […]
(§3) Inhibition data from experiments were graphically represented by Dixon plots. K i values were calculated by nonlinear regression using the equations for competitive inhibition (1), noncompetitive inhibition (2), or mixed inhibition (3), [22] […]

Assay [2] has as its target T2, UGT2B15 (Homo sapiens, UniProt P54855).
T2 sequence (P54855 24-530): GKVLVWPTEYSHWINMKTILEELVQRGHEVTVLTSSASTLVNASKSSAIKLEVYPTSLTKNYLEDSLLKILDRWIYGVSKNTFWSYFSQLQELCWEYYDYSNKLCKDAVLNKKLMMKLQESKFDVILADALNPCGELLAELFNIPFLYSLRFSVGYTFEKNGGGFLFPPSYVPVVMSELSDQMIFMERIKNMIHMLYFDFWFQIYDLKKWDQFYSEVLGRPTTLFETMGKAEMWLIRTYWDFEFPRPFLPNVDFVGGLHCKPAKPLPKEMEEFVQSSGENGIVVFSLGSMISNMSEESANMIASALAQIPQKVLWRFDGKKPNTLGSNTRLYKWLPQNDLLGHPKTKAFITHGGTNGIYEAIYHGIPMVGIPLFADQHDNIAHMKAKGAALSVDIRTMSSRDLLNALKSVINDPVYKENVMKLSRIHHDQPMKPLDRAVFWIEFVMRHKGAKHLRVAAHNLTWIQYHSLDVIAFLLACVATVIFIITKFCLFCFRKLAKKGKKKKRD
Description: Inhibition of recombinant UGT2B15 activity (4-MU glucuronidation). The conditions noted are these: read-out: IC50 for inhibition of UGT2B15 activity; recombinant human UGT2B15, 250 μM 4-MU, mean ± SD. The method, then: as §1, §2, §3

As a reminder, the IC50 is the concentration at which inhibition is half-maximal. As to Icariside II, the half-inhibitory concentration (IC50) in assay [1] and in assay [2] was above 100 µM throughout.
